In the test the target is wild-type human phosphatidylserine synthase 1 (PSS1^WT), C-terminal Flag-tag (human) (UniProt P48651). Nature of the test: cryo-EM structure.

“wild-type human phosphatidylserine synthase 1 (PSS1^WT), C-terminal Flag-tag (from UniProt P48651-1 1-409) (enzyme)” returned a stoichiometry N of 2.

The term stoichiometry N denotes a count of units in the complex or per binding partner.

Values taken from publication PMC11455612 (Cell, 2024).
